Source: ChEMBL document CHEMBL2010643 (Bioorg Med Chem Lett, 2012)

Chains of the proteins cited; added tags and fusions are not shown. Lines headed by an entry give the natural chain unless they say otherwise; changes in a name come on top.
UniProt Q96L34: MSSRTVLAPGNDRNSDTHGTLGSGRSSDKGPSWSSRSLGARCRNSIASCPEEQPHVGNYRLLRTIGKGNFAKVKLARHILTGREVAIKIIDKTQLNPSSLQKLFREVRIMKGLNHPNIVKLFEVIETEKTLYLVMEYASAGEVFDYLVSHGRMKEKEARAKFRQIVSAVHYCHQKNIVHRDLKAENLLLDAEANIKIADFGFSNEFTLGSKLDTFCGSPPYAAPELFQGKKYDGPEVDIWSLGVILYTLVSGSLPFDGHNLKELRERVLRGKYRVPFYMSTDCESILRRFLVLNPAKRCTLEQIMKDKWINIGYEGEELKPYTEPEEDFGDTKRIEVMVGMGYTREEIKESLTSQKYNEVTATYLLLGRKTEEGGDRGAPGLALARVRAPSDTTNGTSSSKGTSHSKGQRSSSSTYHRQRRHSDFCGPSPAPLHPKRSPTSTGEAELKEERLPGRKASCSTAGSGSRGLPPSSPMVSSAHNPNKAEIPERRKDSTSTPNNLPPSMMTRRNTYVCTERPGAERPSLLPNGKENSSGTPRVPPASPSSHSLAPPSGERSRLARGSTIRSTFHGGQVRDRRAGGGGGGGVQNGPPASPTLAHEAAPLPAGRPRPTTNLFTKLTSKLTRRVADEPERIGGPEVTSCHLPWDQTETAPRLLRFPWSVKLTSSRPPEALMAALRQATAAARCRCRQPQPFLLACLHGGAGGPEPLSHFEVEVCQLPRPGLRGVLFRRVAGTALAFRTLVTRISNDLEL
UniProt P28482, whole entry: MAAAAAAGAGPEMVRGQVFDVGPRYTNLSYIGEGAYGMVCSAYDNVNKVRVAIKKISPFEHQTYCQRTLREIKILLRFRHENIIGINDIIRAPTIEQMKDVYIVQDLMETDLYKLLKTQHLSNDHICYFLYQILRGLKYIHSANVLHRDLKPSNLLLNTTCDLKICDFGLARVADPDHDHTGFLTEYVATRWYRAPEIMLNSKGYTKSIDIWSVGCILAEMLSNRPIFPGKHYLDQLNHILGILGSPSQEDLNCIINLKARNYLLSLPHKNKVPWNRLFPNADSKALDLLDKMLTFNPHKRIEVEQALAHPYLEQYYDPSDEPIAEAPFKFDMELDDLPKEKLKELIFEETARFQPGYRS
UniProt Q14012: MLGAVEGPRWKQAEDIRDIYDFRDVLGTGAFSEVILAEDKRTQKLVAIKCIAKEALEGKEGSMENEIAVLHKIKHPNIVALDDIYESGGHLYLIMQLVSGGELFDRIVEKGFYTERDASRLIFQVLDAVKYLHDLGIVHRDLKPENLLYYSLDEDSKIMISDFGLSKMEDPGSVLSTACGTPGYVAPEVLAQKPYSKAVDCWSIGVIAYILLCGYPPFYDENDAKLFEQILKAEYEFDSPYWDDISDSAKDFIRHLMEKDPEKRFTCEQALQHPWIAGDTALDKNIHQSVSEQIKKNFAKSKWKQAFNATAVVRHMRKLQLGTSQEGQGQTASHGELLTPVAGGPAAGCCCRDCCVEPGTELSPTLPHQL
UniProt Q86Z02: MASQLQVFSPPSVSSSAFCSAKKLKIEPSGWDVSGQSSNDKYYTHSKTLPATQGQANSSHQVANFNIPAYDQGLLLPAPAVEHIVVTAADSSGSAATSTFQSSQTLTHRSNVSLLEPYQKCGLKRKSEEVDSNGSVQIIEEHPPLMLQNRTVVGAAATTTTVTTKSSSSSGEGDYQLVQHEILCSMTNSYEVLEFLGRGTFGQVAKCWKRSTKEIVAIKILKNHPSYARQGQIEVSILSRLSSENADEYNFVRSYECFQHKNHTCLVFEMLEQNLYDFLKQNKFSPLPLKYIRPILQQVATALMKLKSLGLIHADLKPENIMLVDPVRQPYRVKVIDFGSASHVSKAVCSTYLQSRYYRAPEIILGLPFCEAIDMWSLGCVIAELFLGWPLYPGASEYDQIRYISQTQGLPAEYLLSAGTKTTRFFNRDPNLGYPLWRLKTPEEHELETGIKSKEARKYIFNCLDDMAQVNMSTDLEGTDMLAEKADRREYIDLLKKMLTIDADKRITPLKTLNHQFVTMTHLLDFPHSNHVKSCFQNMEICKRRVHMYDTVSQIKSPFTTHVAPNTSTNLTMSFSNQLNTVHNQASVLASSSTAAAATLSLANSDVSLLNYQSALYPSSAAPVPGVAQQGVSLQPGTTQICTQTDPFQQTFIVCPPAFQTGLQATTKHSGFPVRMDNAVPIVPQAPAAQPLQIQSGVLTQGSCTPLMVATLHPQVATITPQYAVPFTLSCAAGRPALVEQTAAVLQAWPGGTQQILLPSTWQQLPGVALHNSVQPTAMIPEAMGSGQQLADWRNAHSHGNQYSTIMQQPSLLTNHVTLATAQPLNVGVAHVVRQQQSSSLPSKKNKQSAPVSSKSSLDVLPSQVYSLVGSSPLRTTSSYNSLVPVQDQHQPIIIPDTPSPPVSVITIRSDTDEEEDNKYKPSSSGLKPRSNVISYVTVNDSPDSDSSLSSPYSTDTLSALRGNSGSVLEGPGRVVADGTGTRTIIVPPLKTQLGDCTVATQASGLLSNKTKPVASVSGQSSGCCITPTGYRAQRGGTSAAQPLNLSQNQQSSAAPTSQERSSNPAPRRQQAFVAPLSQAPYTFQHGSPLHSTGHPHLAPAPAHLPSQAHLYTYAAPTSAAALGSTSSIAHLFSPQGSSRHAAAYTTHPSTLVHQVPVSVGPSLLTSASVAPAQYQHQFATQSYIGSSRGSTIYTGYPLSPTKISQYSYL
UniProt Q14164: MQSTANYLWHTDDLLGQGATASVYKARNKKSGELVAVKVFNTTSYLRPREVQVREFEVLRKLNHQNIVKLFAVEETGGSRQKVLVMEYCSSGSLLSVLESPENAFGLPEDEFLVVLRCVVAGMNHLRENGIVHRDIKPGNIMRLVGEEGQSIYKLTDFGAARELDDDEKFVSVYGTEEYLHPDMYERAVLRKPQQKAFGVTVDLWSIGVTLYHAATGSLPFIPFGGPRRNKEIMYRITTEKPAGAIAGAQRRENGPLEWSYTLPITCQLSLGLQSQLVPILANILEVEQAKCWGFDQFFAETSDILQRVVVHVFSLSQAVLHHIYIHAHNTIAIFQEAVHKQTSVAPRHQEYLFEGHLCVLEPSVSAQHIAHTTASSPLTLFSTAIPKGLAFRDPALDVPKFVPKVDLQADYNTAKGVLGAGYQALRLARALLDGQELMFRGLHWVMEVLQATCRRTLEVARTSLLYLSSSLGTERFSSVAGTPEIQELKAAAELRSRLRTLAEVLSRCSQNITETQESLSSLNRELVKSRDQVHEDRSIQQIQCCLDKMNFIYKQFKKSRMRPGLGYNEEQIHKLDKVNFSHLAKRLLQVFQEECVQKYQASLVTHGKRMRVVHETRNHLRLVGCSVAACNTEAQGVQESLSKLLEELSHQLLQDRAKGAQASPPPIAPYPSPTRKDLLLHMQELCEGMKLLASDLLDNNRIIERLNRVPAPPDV
UniProt P54764, whole entry: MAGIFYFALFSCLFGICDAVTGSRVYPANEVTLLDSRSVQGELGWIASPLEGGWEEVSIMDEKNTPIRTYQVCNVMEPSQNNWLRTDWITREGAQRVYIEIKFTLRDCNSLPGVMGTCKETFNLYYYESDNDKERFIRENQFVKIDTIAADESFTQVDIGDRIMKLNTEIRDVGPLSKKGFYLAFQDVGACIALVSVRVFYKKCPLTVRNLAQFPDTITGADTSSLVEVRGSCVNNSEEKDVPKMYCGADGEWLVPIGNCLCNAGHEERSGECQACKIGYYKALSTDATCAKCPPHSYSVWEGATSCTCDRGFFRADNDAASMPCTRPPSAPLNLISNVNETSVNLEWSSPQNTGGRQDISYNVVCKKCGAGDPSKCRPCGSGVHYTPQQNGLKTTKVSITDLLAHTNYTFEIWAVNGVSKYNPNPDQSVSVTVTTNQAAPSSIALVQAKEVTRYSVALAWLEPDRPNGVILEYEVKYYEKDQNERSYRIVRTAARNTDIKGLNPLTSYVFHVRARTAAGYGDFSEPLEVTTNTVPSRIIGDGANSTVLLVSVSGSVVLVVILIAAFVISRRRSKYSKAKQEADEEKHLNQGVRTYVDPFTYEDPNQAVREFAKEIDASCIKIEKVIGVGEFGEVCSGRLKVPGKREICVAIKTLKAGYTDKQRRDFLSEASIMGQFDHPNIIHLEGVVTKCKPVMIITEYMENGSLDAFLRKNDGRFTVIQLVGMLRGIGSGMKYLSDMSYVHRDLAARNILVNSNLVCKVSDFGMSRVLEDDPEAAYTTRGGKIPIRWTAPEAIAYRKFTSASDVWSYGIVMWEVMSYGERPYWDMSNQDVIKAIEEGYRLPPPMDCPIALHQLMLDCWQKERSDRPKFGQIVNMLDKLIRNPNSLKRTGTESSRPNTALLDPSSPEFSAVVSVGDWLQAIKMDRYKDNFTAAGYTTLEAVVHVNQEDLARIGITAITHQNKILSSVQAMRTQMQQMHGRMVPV
UniProt Q9P0L2: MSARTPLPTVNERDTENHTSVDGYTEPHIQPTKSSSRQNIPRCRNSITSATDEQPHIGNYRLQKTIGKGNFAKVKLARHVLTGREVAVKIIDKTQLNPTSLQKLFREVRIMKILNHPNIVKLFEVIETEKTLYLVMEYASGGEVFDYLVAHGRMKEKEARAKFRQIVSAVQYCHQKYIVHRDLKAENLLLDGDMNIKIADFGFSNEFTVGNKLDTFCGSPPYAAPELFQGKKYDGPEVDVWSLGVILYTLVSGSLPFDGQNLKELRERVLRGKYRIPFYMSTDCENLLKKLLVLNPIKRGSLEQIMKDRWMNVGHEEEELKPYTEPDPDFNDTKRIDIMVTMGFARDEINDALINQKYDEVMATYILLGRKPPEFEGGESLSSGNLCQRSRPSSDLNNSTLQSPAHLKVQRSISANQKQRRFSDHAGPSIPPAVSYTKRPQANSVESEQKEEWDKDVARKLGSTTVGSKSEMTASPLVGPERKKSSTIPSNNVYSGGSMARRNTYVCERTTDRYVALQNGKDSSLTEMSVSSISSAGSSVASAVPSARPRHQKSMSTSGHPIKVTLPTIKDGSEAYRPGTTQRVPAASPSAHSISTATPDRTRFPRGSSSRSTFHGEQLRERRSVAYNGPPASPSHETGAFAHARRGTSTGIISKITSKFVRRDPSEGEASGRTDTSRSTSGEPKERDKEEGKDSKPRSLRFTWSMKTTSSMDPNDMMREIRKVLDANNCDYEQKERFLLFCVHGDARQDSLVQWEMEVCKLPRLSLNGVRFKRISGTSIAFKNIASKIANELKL
UniProt P45983: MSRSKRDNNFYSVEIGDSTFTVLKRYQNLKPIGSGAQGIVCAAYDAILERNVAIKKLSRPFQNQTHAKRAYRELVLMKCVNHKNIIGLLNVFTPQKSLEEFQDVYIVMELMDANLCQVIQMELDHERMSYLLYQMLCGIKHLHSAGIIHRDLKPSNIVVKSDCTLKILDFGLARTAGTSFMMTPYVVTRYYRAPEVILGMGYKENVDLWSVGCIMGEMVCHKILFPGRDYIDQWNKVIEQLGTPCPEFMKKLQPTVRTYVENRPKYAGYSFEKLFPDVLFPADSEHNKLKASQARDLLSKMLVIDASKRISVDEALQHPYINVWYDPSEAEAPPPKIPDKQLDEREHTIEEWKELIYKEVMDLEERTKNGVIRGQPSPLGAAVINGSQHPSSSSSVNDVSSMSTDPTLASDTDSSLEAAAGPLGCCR

Experiments:
[1] = target: MAP/microtubule affinity-regulating kinase 4 (Homo sapiens) (UniProt Q96L34); experiment: Inhibition of MARK4 assessed as residual activity at 10 uM relative to control
[2] = target: Mitogen-activated protein kinase 10 (Homo sapiens) (UniProt P53779); experiment: Inhibition of JNK3 assessed as residual activity at 10 uM relative to control
[3] = target: Aurora kinase A (Homo sapiens) (UniProt O14965); experiment: Inhibition of Aurora A assessed as residual activity at 1 uM relative to control
[4] = target: Ribosomal protein S6 kinase alpha-3 (Homo sapiens) (UniProt P51812); experiment: Inhibition of RSK2 assessed as residual activity at 10 uM relative to control
[5] = target: Mitogen-activated protein kinase 11 (Homo sapiens) (UniProt Q15759); experiment: Inhibition of p38beta MAPK assessed as residual activity at 10 uM relative to control
[6] = target: Serine/threonine-protein kinase BRSK2 (Homo sapiens) (UniProt Q8IWQ3); experiment: Inhibition of BRSK2 assessed as residual activity at 10 uM relative to control
[7] = target: Mitogen-activated protein kinase 1 (Homo sapiens) (UniProt P28482); experiment: Inhibition of ERK2 assessed as residual activity at 10 uM relative to control
[8] = target: Ephrin type-B receptor 3 (Homo sapiens) (UniProt P54753); experiment: Inhibition of EPH-B3 assessed as residual activity at 10 uM relative to control
[9] = target: Calcium/calmodulin-dependent protein kinase type 1 (Homo sapiens) (UniProt Q14012); experiment: Inhibition of CAMK1 assessed as residual activity at 1 uM relative to control
[10] = target: Aurora kinase B (Homo sapiens) (UniProt Q96GD4); experiment: Inhibition of Aurora B assessed as residual activity at 1 uM relative to control
[11] = target: Homeodomain-interacting protein kinase 1 (Homo sapiens) (UniProt Q86Z02); experiment: Inhibition of HIPK1 assessed as residual activity at 1 uM relative to control
[12] = target: Protein kinase C gamma type (Homo sapiens) (UniProt P05129); experiment: Inhibition of PKCgamma assessed as residual activity at 10 uM relative to control
[13] = target: Mitogen-activated protein kinase 3 (Homo sapiens) (UniProt P27361); experiment: Inhibition of ERK1 assessed as residual activity at 10 uM relative to control
[14] = target: Rho-associated protein kinase 2 (Homo sapiens) (UniProt O75116); experiment: Inhibition of ROCK 2 assessed as residual activity at 10 uM relative to control
[15] = target: MAP kinase-activated protein kinase 3 (Homo sapiens) (UniProt Q16644); experiment: Inhibition of MAPKAP-K3 assessed as residual activity at 1 uM relative to control
[16] = target: Misshapen-like kinase 1 (Homo sapiens) (UniProt Q8N4C8); experiment: Inhibition of MINK1 assessed as residual activity at 1 uM relative to control
[17] = target: Protein kinase C zeta type (Homo sapiens) (UniProt Q05513); experiment: Inhibition of PKCzeta assessed as residual activity at 10 uM relative to control
[18] = target: Inhibitor of nuclear factor kappa-B kinase subunit epsilon (Homo sapiens) (UniProt Q14164); experiment: Inhibition of IKKepsilon assessed as residual activity at 1 uM relative to control
[19] = target: Serine/threonine-protein kinase PAK 2 (Homo sapiens) (UniProt Q13177); experiment: Inhibition of PAK2 assessed as residual activity at 10 uM relative to control
[20] = target: Ephrin type-A receptor 4 (Homo sapiens) (UniProt P54764); experiment: Inhibition of EPH-A4 assessed as residual activity at 1 uM relative to control
[21] = target: Dual specificity tyrosine-phosphorylation-regulated kinase 1A (Homo sapiens) (UniProt Q13627); experiment: Inhibition of DYRK1A assessed as residual activity at 10 uM relative to control
[22] = target: Serine/threonine-protein kinase tousled-like 1 (Homo sapiens) (UniProt Q9UKI8); experiment: Inhibition of TLK1 assessed as residual activity at 10 uM relative to control
[23] = target: Homeodomain-interacting protein kinase 2 (Homo sapiens) (UniProt Q9H2X6); experiment: Inhibition of HIPK2 assessed as residual activity at 10 uM relative to control
[24] = target: Dual specificity tyrosine-phosphorylation-regulated kinase 3 (Homo sapiens) (UniProt O43781); experiment: Inhibition of DYRK3 assessed as residual activity at 10 uM relative to control
[25] = target: Serine/threonine-protein kinase MARK1 (Homo sapiens) (UniProt Q9P0L2); experiment: Inhibition of MARK1 assessed as residual activity at 1 uM relative to control
[26] = target: Ephrin type-B receptor 4 (Homo sapiens) (UniProt P54760); experiment: Inhibition of EPH-B4 assessed as residual activity at 1 uM relative to control
[27] = target: MAP kinase-interacting serine/threonine-protein kinase 1 (Homo sapiens) (UniProt Q9BUB5); experiment: Inhibition of MNK1 assessed as residual activity at 1 uM relative to control
[28] = target: Mitogen-activated protein kinase 8 (Homo sapiens) (UniProt P45983); experiment: Inhibition of JNK1 assessed as residual activity at 1 uM relative to control
[29] = target: Mitogen-activated protein kinase 9 (Homo sapiens) (UniProt P45984); experiment: Inhibition of JNK2 assessed as residual activity at 10 uM relative to control
[30] = target: Dual specificity testis-specific protein kinase 1 (Homo sapiens) (UniProt Q15569); experiment: Inhibition of TESK1 assessed as residual activity at 1 uM relative to control

`COc1cc(N2CCC(N3CCN(C)CC3)CC2)ccc1Nc1ncc(Cl)c(Nc2ccccc2S(=O)(=O)C(C)C)n1` [TAE-684] gave an Activity [1] of 19%, an Activity [2] of 38% and an Activity [3] of 15%. For the same compound, the Activity [4] was 15%, the Activity [5] was 92% and the Activity [6] was 11%. For the same compound, the Activity [7] was 40%, the Activity [8] was 26% and the Activity [9] was 94%. For the same compound, the Activity [10] was 114%, the Activity [11] was 105% and the Activity [12] was 101%. For the same compound, the Activity [13] was 53%, the Activity [14] was 40% and the Activity [15] was 94%. The Activity [16] was 72%, the Activity [17] was 99% and the Activity [18] was 89%. It also gave an Activity [19] of 57%, an Activity [20] of 52% and an Activity [21] of 77%. It also gave an Activity [22] of 114%, an Activity [23] of 89% and an Activity [24] of 94%. The Activity [25] was 36%, the Activity [26] was 73% and the Activity [27] was 106%. The Activity [28] was 87%, the Activity [29] was 62% and the Activity [30] was 120%.
